Measured values: ChEMBL document CHEMBL1127447, “Isothiocyanate-substituted kappa-selective opioid receptor ligands derived from N-methyl-N-[(1S)-1-phenyl-2-(1-pyrrolidinyl)ethyl] phenylacetamide” (1994)

Amino acid sequences for entries named in this document (tags omitted).
UniProt P41144, whole entry: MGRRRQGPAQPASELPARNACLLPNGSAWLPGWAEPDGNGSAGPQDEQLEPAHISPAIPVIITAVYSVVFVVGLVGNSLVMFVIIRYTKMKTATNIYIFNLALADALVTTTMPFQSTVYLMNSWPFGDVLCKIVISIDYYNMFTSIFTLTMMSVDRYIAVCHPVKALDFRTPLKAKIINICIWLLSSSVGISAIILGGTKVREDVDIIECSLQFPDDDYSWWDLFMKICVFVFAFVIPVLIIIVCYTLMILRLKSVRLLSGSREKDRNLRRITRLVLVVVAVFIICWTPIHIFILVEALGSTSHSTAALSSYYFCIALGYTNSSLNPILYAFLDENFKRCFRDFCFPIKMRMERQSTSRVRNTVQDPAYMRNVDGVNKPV

Columns and labels:
[1] = molecular target: Kappa-type opioid receptor (Cavia porcellus) (UniProt P41144); assay: Tested for percentage specific binding of compound at 4.7 nM against [3H]U-69593 on washed kappa-opioid receptor binding site
[2] = molecular target: Kappa-type opioid receptor (Cavia porcellus) (UniProt P41144); assay: Tested for percentage specific binding of compound at 4.7 nM against [3H]U-69593 on kappa-opioid receptor binding site protected with 1 uM naloxone
[3] = molecular target: Kappa-type opioid receptor (Cavia porcellus) (UniProt P41144); assay: Tested for percentage specific binding of compound at 4.7 nM against [3H]U-69593 on unwashed kappa-opioid receptor binding site

CN(C(=O)Cc1ccc(Cl)c(Cl)c1)[C@H](CN1CCCC1)c1ccccc1
Binding [1]: 20%
Binding [2]: 39%
Binding [3]: 25%
